Target: Inositol hexakisphosphate kinase 1 (Homo sapiens, UniProt Q92551)
Test: Not found
From the text: Not found

Sequences of proteins named here, by UniProt entry; tags and fusion partners are left off. A change or cut given only in a name is not applied to a line headed by its entry.
UniProt Q92551: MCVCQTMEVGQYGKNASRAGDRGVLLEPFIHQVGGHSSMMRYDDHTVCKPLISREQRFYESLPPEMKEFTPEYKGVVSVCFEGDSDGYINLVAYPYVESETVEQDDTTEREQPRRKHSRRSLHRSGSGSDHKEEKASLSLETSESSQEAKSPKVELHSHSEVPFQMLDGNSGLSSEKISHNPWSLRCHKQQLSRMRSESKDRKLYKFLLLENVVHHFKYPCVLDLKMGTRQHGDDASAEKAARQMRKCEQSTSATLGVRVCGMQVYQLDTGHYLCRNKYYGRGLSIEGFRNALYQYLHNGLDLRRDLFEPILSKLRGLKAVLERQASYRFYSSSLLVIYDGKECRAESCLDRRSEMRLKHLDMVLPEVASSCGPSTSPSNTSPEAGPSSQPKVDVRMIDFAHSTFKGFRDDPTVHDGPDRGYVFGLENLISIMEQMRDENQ

Work on `O=C(O)c1ccc2c(c1)[nH]c(=O)n2C1CCN(Cc2ccc(Cl)cc2Cl)CC1` yielded an IC50 of 16500 nM.

`O=C(O)c1ccc2[nH]c(=O)n(C3CCN(Cc4ccccc4Cl)CC3)c2c1` was tested, and the IC50 was 1650 nM.

Work on `O=C(O)c1ccc2[nH]c(=O)n(C3CCN(Cc4ccc(Cl)cc4Cl)CC3)c2c1` yielded an IC50 of 1650 nM.
